Test system: S aureus
Assay: Antibiotic Susceptibility Testing (AST) profile by classical microbiology, BAL sample 2
Format: cell-based
Settings: positive BAL metagenomic sample 2, pathogen S aureus

CCC[C@@H]1C[C@@H](C(=O)N[C@@H]([C@H]2O[C@H](SC)[C@H](O)[C@@H](O)[C@H]2O)[C@H](C)Cl)N(C)C1 [clindamycine]
AST profile: resistance: peniciline, clindamycine

From patent US20190252042A1, “INDENTIFICATION AND ANTIBIOTIC CHARACTERIZATION OF PATHOGENS IN METAGENOMIC SAMPLE” (BIOMÉRIEUX, priority 2016, published 2019)
